Measured values taken from US7101896B2, “Pharmaceutical compositions and methods for use” (Targacept, Inc., priority 1999, dated 2006).

Amino acid sequences for entries named in this document (tags omitted). Residues count along the entry.
UniProt P09483, 31-630 limits assumed: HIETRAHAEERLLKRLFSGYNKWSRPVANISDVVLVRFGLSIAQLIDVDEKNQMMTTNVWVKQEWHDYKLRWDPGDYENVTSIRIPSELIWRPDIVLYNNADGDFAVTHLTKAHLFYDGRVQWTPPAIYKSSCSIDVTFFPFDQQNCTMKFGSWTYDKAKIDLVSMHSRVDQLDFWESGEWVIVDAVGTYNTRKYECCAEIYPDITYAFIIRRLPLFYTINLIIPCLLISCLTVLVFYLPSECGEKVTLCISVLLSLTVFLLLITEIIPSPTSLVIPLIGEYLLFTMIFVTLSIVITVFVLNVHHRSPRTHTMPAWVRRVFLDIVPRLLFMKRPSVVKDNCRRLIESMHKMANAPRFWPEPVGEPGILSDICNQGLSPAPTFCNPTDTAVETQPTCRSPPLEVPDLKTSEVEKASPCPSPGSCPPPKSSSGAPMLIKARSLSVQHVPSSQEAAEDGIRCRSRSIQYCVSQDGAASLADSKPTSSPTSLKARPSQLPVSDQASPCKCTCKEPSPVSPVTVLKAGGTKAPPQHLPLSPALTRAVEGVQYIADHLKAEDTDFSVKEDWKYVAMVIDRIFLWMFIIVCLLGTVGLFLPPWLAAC
UniProt P12390, 25-500 limits assumed: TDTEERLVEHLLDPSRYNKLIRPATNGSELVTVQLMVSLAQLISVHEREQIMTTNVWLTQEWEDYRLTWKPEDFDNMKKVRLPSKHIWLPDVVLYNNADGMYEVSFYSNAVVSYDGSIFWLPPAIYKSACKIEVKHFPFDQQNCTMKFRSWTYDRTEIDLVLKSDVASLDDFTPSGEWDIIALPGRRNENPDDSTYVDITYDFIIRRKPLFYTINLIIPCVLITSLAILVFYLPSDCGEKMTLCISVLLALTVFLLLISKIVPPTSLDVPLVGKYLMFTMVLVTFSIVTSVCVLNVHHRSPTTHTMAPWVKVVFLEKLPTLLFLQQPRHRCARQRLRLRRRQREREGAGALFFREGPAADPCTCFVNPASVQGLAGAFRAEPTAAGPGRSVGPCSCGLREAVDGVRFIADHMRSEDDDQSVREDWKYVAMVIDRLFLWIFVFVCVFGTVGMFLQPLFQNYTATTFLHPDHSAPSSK

Target: CNS nicotinic receptors (Rattus norvegicus, UniProt P09483+P12390)
Experiment: Determination of binding to relevant receptor sites
Details: read-out: Ki (inhibition constant, receptor binding); calculated from the IC50 values using the method of Cheng et al.; techniques of U.S. Pat. No. 5,597,919

Row | SMILES | Ki [nM]
1 | C(#C[C@@H]1CCCN1)c1cncnc1 | 46
2 | Oc1ccc(Oc2cncc(/C=C/[C@@H]3CCCN3)c2)cc1 | 20
